Data on one compound can be found in patent US20050042624A1, “Tumor antigen” (Kyogo ITOH, priority 2001, published 2005).

The data set concerns T2 cell pulsed with peptide. Nature of the data set: 51Cr release assay, pooled OK-CTLd sublines against peptide-pulsed T2 cells. To be noted: E/T ratio of 10, 20, and 40; 6 h. As for the experimental part:
OK-CTLd sublines were pooled to use as effector cells, and cytotoxicity against target cells was examined by the ^51Cr release assay. […] Effector cells and target cells were mixed each other at an E/T ratio of 10, 20, and 40, and then incubated for 6 h, followed by measuring a radioactivity of ^51Cr released in the culture supernatant.

As to `CC(C)C[C@H](NC(=O)[C@@H](NC(=O)[C@H](C)NC(=O)[C@@H](NC(=O)[C@@H](NC(=O)[C@H](CC(N)=O)NC(=O)[C@H](Cc1ccc(O)cc1)NC(=O)[C@H](CC(C)C)NC(=O)[C@@H](N)CO)[C@@H](C)O)C(C)C)[C@@H](C)O)C(=O)O` [HIV, SLYNTVATL, reference compound], the “cytotoxicity of pooled OK-CTLd subline against peptide-pulsed target cells” value was “did not show any cytotoxicity”.
